In this assay the target is T1, CB1 receptor (Mus musculus, UniProt P47746).
T1 construct: Mouse vasa deferentia were dissected with capsular connective tissue intact and set up in 20 ml organ baths; from tissue; host or cells: mouse (Swiss white) isolated vas deferens
The experiment in a line: Mouse electrically-stimulated isolated vas deferens bioassay (MVD). It counts as cell-based. The note with it: decrease of electrically evoked twitch force. On the procedure: Functional activity of the compounds was assayed using the mouse electrically-stimulated vas deferens bioassay, a measure of CB1 receptor function (24,25). Compounds showing appreciable activity in this assay and the ability to be antagonised by the CB1-selective antagonist, SR141716A, were deemed to be CB1 agonists. The remaining compounds were classed as cannabinoid ligands. CB2 functionality may be investigated using assays known to those skilled in the art; for example those described in U.S. Pat. No. 6,013,648.
Swiss white mice (35-40 g) were killed by exposure to 80% CO2 in O2 and exsanguination. Mouse vasa deferentia were dissected with capsular connective tissue intact and set up in 20 ml organ baths at 37° C. in Mg^2+-free physiological salt solution. […] Output from the transducer amplifier was recorded on a flat bed recorder (Gould BS 272, Cleveland, Ohio, U.S.A.). All drugs were dissolved in dimethyl sulfoxide (DMSO; Sigma, St Louis, Mo., U.S.A.) and allowed to equilibrate with the tissue for 30 min before the responses to field stimulation were assessed. Drug effects were measured as the percentage decrease of the pre-drug twitch force. In experiments where only a single drug concentration was tested, the resulting effect was expressed as a percentage of that observed in the presence of vehicle.

The chains behind the UniProt entries cited, without tags or fusion partners.
UniProt P47746, whole entry: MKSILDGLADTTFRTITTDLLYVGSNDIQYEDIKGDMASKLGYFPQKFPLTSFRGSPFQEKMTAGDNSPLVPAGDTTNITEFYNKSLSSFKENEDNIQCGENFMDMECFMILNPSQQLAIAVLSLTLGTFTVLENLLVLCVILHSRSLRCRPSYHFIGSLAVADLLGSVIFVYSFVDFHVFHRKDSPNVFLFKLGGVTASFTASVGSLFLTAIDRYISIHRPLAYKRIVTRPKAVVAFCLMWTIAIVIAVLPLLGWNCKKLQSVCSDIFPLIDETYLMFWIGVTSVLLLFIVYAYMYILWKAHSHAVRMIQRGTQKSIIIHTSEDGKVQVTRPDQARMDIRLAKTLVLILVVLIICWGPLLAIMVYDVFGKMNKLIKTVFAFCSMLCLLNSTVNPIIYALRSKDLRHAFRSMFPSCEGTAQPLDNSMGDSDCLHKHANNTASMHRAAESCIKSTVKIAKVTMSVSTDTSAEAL

On to `CCCCCc1cc(O)c2c(c1)OC(C)(C)[C@@H]1CCC(C)=C[C@@H]21` [THC, reference compound], for which the “CB1 (MVD) % inh at 1.0 μM” value was 100%.

The record behind these values is patent publication US6930118B2, “3-Oxadiazol-5-yl-1-aminoalkyl-1h-indole derivatives” (Amrad Operations Pty. Ltd., priority 2001, dated 2005).
